Experimental data: US12065409B2, “Analogs of 2-pralidoxime as antidotes against organophosphorus nerve agents” (dated 2024)
Read-outs that look alike come from different tables or passages of the source.

Amino acid sequences for entries named in this document (tags omitted). Residues count along the entry.
UniProt O42275, 24-633 limits assumed: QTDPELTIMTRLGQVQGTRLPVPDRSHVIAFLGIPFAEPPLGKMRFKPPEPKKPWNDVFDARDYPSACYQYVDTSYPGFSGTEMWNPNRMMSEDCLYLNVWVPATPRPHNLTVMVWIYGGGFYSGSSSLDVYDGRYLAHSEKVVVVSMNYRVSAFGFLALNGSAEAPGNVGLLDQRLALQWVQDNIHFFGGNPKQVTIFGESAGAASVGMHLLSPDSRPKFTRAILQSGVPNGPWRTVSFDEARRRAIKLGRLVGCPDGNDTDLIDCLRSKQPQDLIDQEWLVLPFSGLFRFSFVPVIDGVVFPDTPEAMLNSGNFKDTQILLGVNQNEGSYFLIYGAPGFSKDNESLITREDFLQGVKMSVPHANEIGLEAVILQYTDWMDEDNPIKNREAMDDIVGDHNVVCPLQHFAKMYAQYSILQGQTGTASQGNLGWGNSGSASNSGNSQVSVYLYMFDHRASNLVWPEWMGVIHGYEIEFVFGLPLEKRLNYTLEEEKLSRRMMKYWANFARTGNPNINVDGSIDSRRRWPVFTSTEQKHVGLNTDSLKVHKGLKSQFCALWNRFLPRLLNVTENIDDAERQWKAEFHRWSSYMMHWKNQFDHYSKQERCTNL
UniProt P22303, 32-614 limits assumed: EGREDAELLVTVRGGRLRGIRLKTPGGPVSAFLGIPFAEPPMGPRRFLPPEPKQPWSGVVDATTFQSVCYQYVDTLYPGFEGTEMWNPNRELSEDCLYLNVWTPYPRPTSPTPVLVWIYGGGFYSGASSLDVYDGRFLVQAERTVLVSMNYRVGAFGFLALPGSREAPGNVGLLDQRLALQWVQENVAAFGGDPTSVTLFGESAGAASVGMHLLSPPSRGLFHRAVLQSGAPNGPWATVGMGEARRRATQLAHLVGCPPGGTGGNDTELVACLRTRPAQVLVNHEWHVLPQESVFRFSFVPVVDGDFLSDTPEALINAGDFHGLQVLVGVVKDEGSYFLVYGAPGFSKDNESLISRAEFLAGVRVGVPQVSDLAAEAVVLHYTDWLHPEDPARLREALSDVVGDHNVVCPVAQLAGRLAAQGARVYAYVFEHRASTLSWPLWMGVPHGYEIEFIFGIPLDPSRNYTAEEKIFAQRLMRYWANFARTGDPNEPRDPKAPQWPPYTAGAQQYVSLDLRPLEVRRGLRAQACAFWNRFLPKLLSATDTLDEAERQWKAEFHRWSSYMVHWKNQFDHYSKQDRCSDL

Tests used:
[1] = target: Electrophorus electricus (electric eel) AChE (Electrophorus electricus, UniProt O42275); test: Ellman's assay: reactivation of paraoxon-inhibited electric eel AChE; details: read-out: EC50, AChE activity (reactivation), 10 U/mL eel AChE, mean±SEM
human AChE = human AChE (Homo sapiens, UniProt P22303); test: Ellman's assay: reactivation of paraoxon-ethyl-inhibited human AChE; details: read-out: EC50, normalized AChE activity (reactivation); 10 U/mL human AChE, 20 μM paraoxon-ethyl, 0-600 μM reactivator, pH 7.4; mean±SEM
[2] = 20 μM paraoxon-ethyl, at 25 minutes, 1:1:88:10 isopropanol:DMSO:phosphate:Tris pH 7.4
[3] = 20 μM paraoxon-ethyl, at 20 minutes, pH 7.4
[4] = 20 μM paraoxon-methyl, at 20 minutes, pH 7.4

Compound | EC50 [1, 2] | EC50 [1, 3] | EC50 [1, 4] | further results
C[n+]1ccc(C#Cc2ccccc2)cc1/C=N/O | 18 µM | – | – | –
Cc1cccc(/C=N/O)[n+]1C | – | 18 µM | 24 µM | –
C[n+]1ccc(-c2ccccc2)cc1/C=N/O | – | – | – | EC50 (human AChE): 69 µM
C[n+]1ccc(C(F)(F)F)cc1/C=N/O | 18 µM | – | – | –
C[n+]1ccc(CCc2ccccc2)cc1/C=N/O | 18 µM | – | – | –
Cc1cc[n+](C)c(/C=N/O)c1 | – | 18 µM | 18 µM | –
